Experimental data from ChEMBL document CHEMBL4402521, “Synthesis and Evaluation of Novel TLR2 Agonists as Potential Adjuvants for Cancer Vaccines” (J Med Chem, 2020).

By UniProt entry, the sequences of proteins in these tests, tags left out.
UniProt O60603, whole entry: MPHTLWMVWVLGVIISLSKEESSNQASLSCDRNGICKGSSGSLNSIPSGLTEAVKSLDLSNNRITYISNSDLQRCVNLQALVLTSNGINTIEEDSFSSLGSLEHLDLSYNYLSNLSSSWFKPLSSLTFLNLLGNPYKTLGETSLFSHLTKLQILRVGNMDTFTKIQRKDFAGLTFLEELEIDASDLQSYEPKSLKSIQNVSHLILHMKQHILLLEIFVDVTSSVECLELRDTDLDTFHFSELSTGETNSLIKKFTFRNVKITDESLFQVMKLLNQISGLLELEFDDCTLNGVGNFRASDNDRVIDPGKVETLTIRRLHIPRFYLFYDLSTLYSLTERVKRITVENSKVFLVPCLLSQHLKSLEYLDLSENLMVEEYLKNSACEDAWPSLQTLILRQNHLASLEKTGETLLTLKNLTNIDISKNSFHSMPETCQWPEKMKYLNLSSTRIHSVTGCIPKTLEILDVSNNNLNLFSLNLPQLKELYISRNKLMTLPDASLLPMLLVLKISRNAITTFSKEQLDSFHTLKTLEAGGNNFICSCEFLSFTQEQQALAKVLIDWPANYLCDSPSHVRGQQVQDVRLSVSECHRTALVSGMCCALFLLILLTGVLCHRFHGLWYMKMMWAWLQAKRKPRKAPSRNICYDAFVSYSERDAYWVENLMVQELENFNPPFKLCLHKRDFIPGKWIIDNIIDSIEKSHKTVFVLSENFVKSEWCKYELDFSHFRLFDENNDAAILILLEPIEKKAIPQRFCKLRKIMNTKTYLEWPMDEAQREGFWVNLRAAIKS

Target: Toll-like receptor 2 (Homo sapiens, UniProt O60603)
Assay: Agonist activity at human TLR2 expressed in HEK-Blue cells co-expressing NF-kappaB-SEAP reporter gene measured after 16 hrs by SEAP reporter gene assay
Assay type: cell-based
Procedure, shortened: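 HEK-Blue-hTLR2 cells carrying a TLR2-NF-κB-SEAP reporter system were incubated with diluted agonists for 16 h. SEAP was read as absorbance at 655 nm and background was subtracted. Normalized mean ± SEM came from at least triplicate wells. EC50 (nM) was obtained by nonlinear regression curve fit of the normalized absorbance values.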

Row | SMILES | EC50 [nM]
1 | CCCCCCCCCCCCCCCC(=O)OC[C@@H](CSC[C@H](NC(C)=O)C(=O)N[C@@H](CO)C(=O)N[C@@H](CCCCN)C(=O)N[C@@H](CCCCN)C(=O)N[C@@H](CCCCN)C(=O)N[C@@H](CCCCN)C(=O)N[C@@H](CO)C(=O)N[C@@H](CC(C)C)C(=O)N[C@@H](CC(C)C)C(=O)N[C@@H](CCSC)C(=O)N[C@@H](Cc1c[nH]c2ccccc12)C(=O)N[C@H](C(=O)N[C@H](C(=O)N[C@@H](CCC(N)=O)C(=O)N[C@H](C(=O)O)C(C)C)[C@@H](C)O)[C@@H](C)CC)OC(=O)CCCCCCCCCCCCCCC | 151
2 | CCCCCCCCCCCCCCCC(=O)N[C@@H](CSC[C@@H](COC(=O)CCCCCCCCCCCCCCC)OC(=O)CCCCCCCCCCCCCCC)C(=O)N[C@@H](CO)C(=O)N[C@@H](CCCCN)C(=O)N[C@@H](CCCCN)C(=O)N[C@@H](CCCCN)C(=O)N[C@@H](CCCCN)C(=O)N[C@@H](CO)C(=O)N[C@@H](CC(C)C)C(=O)N[C@@H](CC(C)C)C(=O)N[C@@H](CCSC)C(=O)N[C@@H](Cc1c[nH]c2ccccc12)C(=O)N[C@H](C(=O)N[C@H](C(=O)N[C@@H](CCC(N)=O)C(=O)N[C@H](C(=O)O)C(C)C)[C@@H](C)O)[C@@H](C)CC | 23
3 | CCCCCCCCCCCCCCCC(=O)OCCC[C@H](CSC[C@H](N)C(=O)N[C@@H](CO)C(=O)N[C@@H](CCCCN)C(=O)N[C@@H](CCCCN)C(=O)N[C@@H](CCCCN)C(=O)N[C@@H](CCCCN)C(=O)N[C@@H](CO)C(=O)N[C@@H](CC(C)C)C(=O)N[C@@H](CC(C)C)C(=O)N[C@@H](CCSC)C(=O)N[C@@H](Cc1c[nH]c2ccccc12)C(=O)N[C@H](C(=O)N[C@H](C(=O)N[C@@H](CCC(N)=O)C(=O)N[C@H](C(=O)O)C(C)C)[C@@H](C)O)[C@@H](C)CC)OC(=O)CCCCCCCCCCCCCCC | 0.383
4 | CCCCCCCCCCCCCCCC(=O)OCC[C@H](CSC[C@H](NC(C)=O)C(=O)N[C@@H](CO)C(=O)N[C@@H](CCCCN)C(=O)N[C@@H](CCCCN)C(=O)N[C@@H](CCCCN)C(=O)N[C@@H](CCCCN)C(=O)N[C@@H](CO)C(=O)N[C@@H](CC(C)C)C(=O)N[C@@H](CC(C)C)C(=O)N[C@@H](CCSC)C(=O)N[C@@H](Cc1c[nH]c2ccccc12)C(=O)N[C@H](C(=O)N[C@H](C(=O)N[C@@H](CCC(N)=O)C(=O)N[C@H](C(=O)O)C(C)C)[C@@H](C)O)[C@@H](C)CC)OC(=O)CCCCCCCCCCCCCCC | 1.16
5 | CCCCCCCCCCCCCCCC(=O)OCC[C@H](CSC[C@H](N)C(=O)N[C@@H](CO)C(=O)N[C@@H](CCCCN)C(=O)N[C@@H](CCCCN)C(=O)N[C@@H](CCCCN)C(=O)N[C@@H](CCCCN)C(=O)N[C@@H](CO)C(=O)N[C@@H](CC(C)C)C(=O)N[C@@H](CC(C)C)C(=O)N[C@@H](CCSC)C(=O)N[C@@H](Cc1c[nH]c2ccccc12)C(=O)N[C@H](C(=O)N[C@H](C(=O)N[C@@H](CCC(N)=O)C(=O)N[C@H](C(=O)O)C(C)C)[C@@H](C)O)[C@@H](C)CC)OC(=O)CCCCCCCCCCCCCCC | 0.609
6 | CCCCCCCCCCCCCCCC(=O)OC[C@H](CSC[C@H](NC(C)=O)C(=O)N[C@@H](CO)C(=O)N[C@@H](CCCCN)C(=O)N[C@@H](CCCCN)C(=O)N[C@@H](CCCCN)C(=O)N[C@@H](CCCCN)C(=O)N[C@@H](CO)C(=O)N[C@@H](CC(C)C)C(=O)N[C@@H](CC(C)C)C(=O)N[C@@H](CCSC)C(=O)N[C@@H](Cc1c[nH]c2ccccc12)C(=O)N[C@H](C(=O)N[C@H](C(=O)N[C@@H](CCC(N)=O)C(=O)N[C@H](C(=O)O)C(C)C)[C@@H](C)O)[C@@H](C)CC)OC(=O)CCCCCCCCCCCCCCC | 0.281
7 | CCCCCCCCCCCCCCCC(=O)OC[C@H](CSC[C@H](N)C(=O)N[C@@H](CO)C(=O)N[C@@H](CCCCN)C(=O)N[C@@H](CCCCN)C(=O)N[C@@H](CCCCN)C(=O)N[C@@H](CCCCN)C(=O)N[C@@H](CO)C(=O)N[C@@H](CC(C)C)C(=O)N[C@@H](CC(C)C)C(=O)N[C@@H](CCSC)C(=O)N[C@@H](Cc1c[nH]c2ccccc12)C(=O)N[C@H](C(=O)N[C@H](C(=O)N[C@@H](CCC(N)=O)C(=O)N[C@H](C(=O)O)C(C)C)[C@@H](C)O)[C@@H](C)CC)OC(=O)CCCCCCCCCCCCCCC | 0.468
8 | CCCCCCCCCCCCCCCC(=O)OC[C@@H](CSC[C@H](N)C(=O)N[C@@H](CO)C(=O)N[C@@H](CCCCN)C(=O)N[C@@H](CCCCN)C(=O)N[C@@H](CCCCN)C(=O)N[C@@H](CCCCN)C(=O)N[C@@H](CO)C(=O)N[C@@H](CC(C)C)C(=O)N[C@@H](CC(C)C)C(=O)N[C@@H](CCSC)C(=O)N[C@@H](Cc1c[nH]c2ccccc12)C(=O)N[C@H](C(=O)N[C@H](C(=O)N[C@@H](CCC(N)=O)C(=O)N[C@H](C(=O)O)C(C)C)[C@@H](C)O)[C@@H](C)CC)OC(=O)CCCCCCCCCCCCCCC | 156
9 | CCCCCCCCCCCCCCCC(=O)OCCCCC[C@H](CSC[C@H](N)C(=O)N[C@@H](CO)C(=O)N[C@@H](CCCCN)C(=O)N[C@@H](CCCCN)C(=O)N[C@@H](CCCCN)C(=O)N[C@@H](CCCCN)C(=O)N[C@@H](CO)C(=O)N[C@@H](CC(C)C)C(=O)N[C@@H](CC(C)C)C(=O)N[C@@H](CCSC)C(=O)N[C@@H](Cc1c[nH]c2ccccc12)C(=O)N[C@H](C(=O)N[C@H](C(=O)N[C@@H](CCC(N)=O)C(=O)N[C@H](C(=O)O)C(C)C)[C@@H](C)O)[C@@H](C)CC)OC(=O)CCCCCCCCCCCCCCC | 4.44
10 | CCCCCCCCCCCCCCCC(=O)OCC[C@@H](CSC[C@H](NC(C)=O)C(=O)N[C@@H](CO)C(=O)N[C@@H](CCCCN)C(=O)N[C@@H](CCCCN)C(=O)N[C@@H](CCCCN)C(=O)N[C@@H](CCCCN)C(=O)N[C@@H](CO)C(=O)N[C@@H](CC(C)C)C(=O)N[C@@H](CC(C)C)C(=O)N[C@@H](CCSC)C(=O)N[C@@H](Cc1c[nH]c2ccccc12)C(=O)N[C@H](C(=O)N[C@H](C(=O)N[C@@H](CCC(N)=O)C(=O)N[C@H](C(=O)O)C(C)C)[C@@H](C)O)[C@@H](C)CC)OC(=O)CCCCCCCCCCCCCCC | 17.4
11 | CCCCCCCCCCCCCCCC(=O)OCCCC[C@H](CSC[C@H](N)C(=O)N[C@@H](CO)C(=O)N[C@@H](CCCCN)C(=O)N[C@@H](CCCCN)C(=O)N[C@@H](CCCCN)C(=O)N[C@@H](CCCCN)C(=O)N[C@@H](CO)C(=O)N[C@@H](CC(C)C)C(=O)N[C@@H](CC(C)C)C(=O)N[C@@H](CCSC)C(=O)N[C@@H](Cc1c[nH]c2ccccc12)C(=O)N[C@H](C(=O)N[C@H](C(=O)N[C@@H](CCC(N)=O)C(=O)N[C@H](C(=O)O)C(C)C)[C@@H](C)O)[C@@H](C)CC)OC(=O)CCCCCCCCCCCCCCC | 0.304
12 | CCCCCCCCCCCCCCCC(=O)OCC[C@@H](CSC[C@H](N)C(=O)N[C@@H](CO)C(=O)N[C@@H](CCCCN)C(=O)N[C@@H](CCCCN)C(=O)N[C@@H](CCCCN)C(=O)N[C@@H](CCCCN)C(=O)N[C@@H](CO)C(=O)N[C@@H](CC(C)C)C(=O)N[C@@H](CC(C)C)C(=O)N[C@@H](CCSC)C(=O)N[C@@H](Cc1c[nH]c2ccccc12)C(=O)N[C@H](C(=O)N[C@H](C(=O)N[C@@H](CCC(N)=O)C(=O)N[C@H](C(=O)O)C(C)C)[C@@H](C)O)[C@@H](C)CC)OC(=O)CCCCCCCCCCCCCCC | 46.2
13 | CCCCCCCCCCCCCCCC(=O)N[C@@H](CSC[C@H](COC(=O)CCCCCCCCCCCCCCC)OC(=O)CCCCCCCCCCCCCCC)C(=O)N[C@@H](CO)C(=O)N[C@@H](CCCCN)C(=O)N[C@@H](CCCCN)C(=O)N[C@@H](CCCCN)C(=O)N[C@@H](CCCCN)C(=O)N[C@@H](CO)C(=O)N[C@@H](CC(C)C)C(=O)N[C@@H](CC(C)C)C(=O)N[C@@H](CCSC)C(=O)N[C@@H](Cc1c[nH]c2ccccc12)C(=O)N[C@H](C(=O)N[C@H](C(=O)N[C@@H](CCC(N)=O)C(=O)N[C@H](C(=O)O)C(C)C)[C@@H](C)O)[C@@H](C)CC | 161
